In patent publication US11964973B2 (priority 2019, dated 2024):

Test system: Human venous whole blood (IFN-γ)
Experiment: Human whole blood IFN-γ assay
Type: cell-based
Conditions: read-out: INFg Whole Blood Normalized Agonist EC50, anti-CD3 plus anti-CD28, 24 hours

`C[C@H]1CN(c2cc(=O)n(C)c3ccc(C#N)nc23)CC[C@@H]1Oc1cccc(C(C)(C)C)c1` showed an EC50 of 19 µM.
